Values quoted from earlier work as cited in patent publication US20260028374A1, “EPIDERMAL GROWTH FACTOR RECEPTOR INHIBITORS” (FILAMON LTD, priority 2023, published 2026).

Experiments:
RKO = settings: EGFR- Wild type, low expression BRAF - 600E; cited from earlier work
SW48 = settings: SW48, Wild type KRAS/BRAF; cited from earlier work
HCT116 = settings: HCT116, KRAS - G13D; cited from earlier work
HT29 = settings: HT29, EGFR - Wild type, high expression BRAF - 600E; cited from earlier work
SW48G12V = settings: Isogeneic Hetrozygous KRAS mutant; cited from earlier work

Cetuximab: anti-EGFR monoclonal antibody
Resistance (RKO): resistant^c
Resistance (SW48): Sensitive to
Resistance (HCT116): resistant^b
Resistance (HT29): resistant^b
Resistance (SW48G12V): Resistant to
